In article PMC10654779, “Development of a fibroblast activation protein-targeted PET/NIR dual-modality probe and its application in head and neck cancer” (Frontiers in Bioengineering and Biotechnology, 2023):

Tested on: U87MG xenografts
Conditions: mouse, in vivo, iv

fluorine-18 fluorodeoxyglucose [[^18F]F-FDG]
SUVmax of the tumor: 0.36 ± 0.06
